How the values were obtained:
[1] = Description: Acute colitis was defined as a 7 day treatment, and chronic colitis as any further treatment including remission periods. Control animals received sterile acidified water only. Symptoms (weight loss, stool consistency, gross bleeding) were recorded daily for calculation of disease activity index (23).
The disease activity index (DAI) is the average combined score of weight loss (0-4), stool consistency (0-4), and bleeding (0-4), used to score clinical symptoms (23).

[2] = test system: peripheral leukocytes; conditions: wildtype mice, DSS 7 days, 3% w/v; p<0.01

Substance: dextran sulfate sodium [DSS]
- Onset of rectal bleeding ([1]; 3% DSS, cycle 1): 4 days
- Mortality ([1]; wildtype mice, after three cycles of 3% DSS): no mortalities were observed
- 8-oxoguanine in peripheral leukocytes [2]: significant increase
- Nitrotyrosine in peripheral leukocytes [2]: significant increase

— US9828641B2, “Systemic genotoxicity as blood marker for allergic inflammation” (The Regents of the University of California, priority 2013, dated 2017)
